Experiments:
EHMT1 = EHMT1 (Homo sapiens, UniProt Q9H9B1); assay: EHMT1 PEP (EHMT1 peptide enzyme assay); type: biochemical; conditions: read-out: EHMT1 PEP (IC50 μM); peptide substrate enzyme assay
[1] = target: recombinant purified human EHMT2 913-1193 (Homo sapiens, UniProt Q96KQ7); assay: EHMT2 enzyme assay on histone peptide substrate (3H-SAM Flashplate); conditions: read-out: EHMT2 PEP (IC50 μM)
Experimental: Recombinant purified human EHMT2 913-1193 (55 μM) synthesized by Viva was used for all experiments. Biotinylated histone peptides were synthesized by Biopeptide and HPLC-purified to >95% purity. Streptavidin Flashplates and seals were purchased from PerkinElmer and 384 Well V-bottom Polypropylene Plates were from Greiner. ^3H-labeled S-adenosylmethionine (3H-SAM) was obtained from American Radiolabeled Chemicals with a specific activity of 80 Ci/mmol. Unlabeled SAM and S-adenosylhomocysteine (SAH) were obtained from American Radiolabeled Chemicals and Sigma-Aldrich respectively. Flashplates were washed in a Biotek ELx-405 with 0.1% Tween. 384-well Flashplates and 96-well filter binding plates were read on a TopCount microplate reader (PerkinElmer). Compound serial dilutions were performed on a Freedom EVO (Tecan) and spotted into assay plates using a Thermo Scientific Matrix PlateMate (Thermo Scientific). Reagent cocktails were added by Multidrop Combi (Thermo Scientific).
General Procedure for EHMT2 Enzyme Assay on Histone Peptide Substrate.
10-point curves of test compounds were made on a Freedom EVO (Tecan) using serial 3-fold dilutions in DMSO, beginning at 2.5 mM (final top concentration of compound was 50 μM and the DMSO was 2%). A 1 μL aliquot of the inhibitor dilution series was spotted in a polypropylene 384-well V-bottom plate (Greiner) using a Thermo Scientific Matrix PlateMate (Thermo Scientific). The 100% inhibition control consisted of 1 mM final concentration of the product inhibitor S-adenosylhomocysteine (SAH, Sigma-Aldrich). Compounds were incubated for 30 minutes with 40 μL per well of 0.031 nM EHMT2 (recombinant purified human EHMT2 913-1193, Viva) in 1× assay buffer (20 mM Bicine [pH 7.5], 0.002% Tween 20, 0.005% Bovine Skin Gelatin and 1 mM TCEP). […] 384-well Flashplates were read on a TopCount microplate reader (PerkinElmer).
(§1) IC50 curves were generated using triplicate wells per concentration of compound. […] IC50 values were calculated using a non-linear regression (variable slope-four parameter fit model) with by the following formula […]

The chains behind the UniProt entries cited, without tags or fusion partners. Residues count along the entry.
UniProt Q9H9B1, whole entry: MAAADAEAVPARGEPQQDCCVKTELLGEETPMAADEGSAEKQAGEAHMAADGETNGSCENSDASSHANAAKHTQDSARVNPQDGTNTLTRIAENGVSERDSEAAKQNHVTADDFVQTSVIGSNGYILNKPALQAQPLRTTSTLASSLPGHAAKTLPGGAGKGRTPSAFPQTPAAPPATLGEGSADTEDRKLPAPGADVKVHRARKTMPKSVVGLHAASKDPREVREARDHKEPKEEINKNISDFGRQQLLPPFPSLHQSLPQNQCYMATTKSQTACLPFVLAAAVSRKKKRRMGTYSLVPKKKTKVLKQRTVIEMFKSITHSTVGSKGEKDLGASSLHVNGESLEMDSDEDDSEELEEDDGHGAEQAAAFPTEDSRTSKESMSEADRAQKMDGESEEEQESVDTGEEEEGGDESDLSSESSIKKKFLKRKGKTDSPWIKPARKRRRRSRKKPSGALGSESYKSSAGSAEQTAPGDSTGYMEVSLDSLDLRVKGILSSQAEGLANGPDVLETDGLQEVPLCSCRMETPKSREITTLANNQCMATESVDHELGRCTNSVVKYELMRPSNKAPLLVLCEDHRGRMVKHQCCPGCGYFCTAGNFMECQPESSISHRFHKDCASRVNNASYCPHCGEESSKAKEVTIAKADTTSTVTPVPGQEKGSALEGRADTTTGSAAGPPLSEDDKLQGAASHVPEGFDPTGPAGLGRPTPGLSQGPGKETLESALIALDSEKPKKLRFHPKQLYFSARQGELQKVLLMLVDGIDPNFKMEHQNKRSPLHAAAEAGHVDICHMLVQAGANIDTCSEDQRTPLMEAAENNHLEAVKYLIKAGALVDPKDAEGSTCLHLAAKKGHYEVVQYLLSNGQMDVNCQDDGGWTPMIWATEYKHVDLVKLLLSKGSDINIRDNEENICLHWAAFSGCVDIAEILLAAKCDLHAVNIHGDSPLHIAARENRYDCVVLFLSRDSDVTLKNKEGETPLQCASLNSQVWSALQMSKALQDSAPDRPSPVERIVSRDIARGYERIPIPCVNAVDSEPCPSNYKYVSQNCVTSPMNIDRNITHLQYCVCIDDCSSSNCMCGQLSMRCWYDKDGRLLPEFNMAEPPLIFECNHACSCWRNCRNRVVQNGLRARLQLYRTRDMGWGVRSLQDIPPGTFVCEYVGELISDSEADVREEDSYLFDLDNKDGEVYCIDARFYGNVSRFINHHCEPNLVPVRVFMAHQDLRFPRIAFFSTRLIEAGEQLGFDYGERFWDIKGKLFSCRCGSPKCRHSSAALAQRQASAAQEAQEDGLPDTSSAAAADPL
UniProt Q96KQ7, 913-1193 limits assumed: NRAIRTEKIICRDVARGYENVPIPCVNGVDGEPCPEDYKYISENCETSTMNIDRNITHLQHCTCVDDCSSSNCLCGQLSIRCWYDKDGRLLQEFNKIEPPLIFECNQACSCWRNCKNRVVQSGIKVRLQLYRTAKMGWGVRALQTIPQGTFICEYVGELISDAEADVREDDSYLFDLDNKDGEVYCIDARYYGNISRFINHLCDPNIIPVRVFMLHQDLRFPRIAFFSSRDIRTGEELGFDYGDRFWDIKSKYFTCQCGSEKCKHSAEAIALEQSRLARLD

[2] = tested on: H3K9me2 in MDA-MB-231 cells; assay: MDA-MB-231 H3K9me2 in-cell western assay; conditions: read-out: EHMT2 ICW (IC50 μM)
Source text: MDA-MB-231 cell line was purchased from ATCC (Manassas, Va., USA). RPMI/Glutamax medium, Penicillin-Streptomycin, Heat Inactivated Fetal Bovine Serum, and D-PBS were purchased from Life Technologies (Grand Island, N.Y., USA). Odyssey blocking buffer, 800CW goat anti-mouse IgG (H+L) antibody, and Licor Odyssey Infrared Scanner were purchased from Licor Biosciences, Lincoln, Nebr., USA. H3K9me2 mouse monoclonal antibody (Cat #1220) was purchased from Abcam (Cambridge, Mass., USA). 16% Paraformaldehyde was purchased from Electron Microscopy Sciences, Hatfield, Pa., USA). MDA-MB-231 cells were maintained in complete growth medium (RPMI supplemented with 10% v/v heat inactivated fetal bovine serum) and cultured at 37° C. under 5% CO2. UNC0638 was purchased from Sigma-Aldrich (St. Louis, Mo., USA).
General Procedure for MDA-MB-231 HEK9me2 In-Cell Western Assay.
Compound (100 nL) was added directly to 384-well cell plate. MDA-MB-231 cells (ATCC) were seeded in assay medium (RPMI/Glutamax supplemented with 10% v/v heat inactivated fetal bovine serum and 1% Penicillin/Streptomycin, Life Technologies) at a concentration of 3,000 cells per well to a Poly-D-Lysine coated 384-well cell culture plate with 50 μL per well. Plates were incubated at 37° C., 5% CO2 for 48 hours (BD Biosciences 356697). Plates were incubated at room temperature for 30 minutes and then incubated at 37° C., 5% CO2 for additional 48 hours. […] Plates were allowed to dry at room temperature then imaged on a Licor Odyssey Infrared Scanner (Licor Biosciences) which measured integrated intensity at 700 nm and 800 nm wavelengths. […]
First, the ratio for each well was determined by […]
The average of the ratio values for each well was calculated and used to determine the percent inhibition for each test well in the plate. […] Percent inhibition was calculated as: […]
as §1

Compound	IC50 (EHMT1) [µM]	IC50 [1] [µM]	IC50 [2] [µM]
CNC1=Nc2cc(-c3[nH]c4cnccc4c3F)c(OC)cc2C12CCC2	< 0.1	< 0.1	0.1 to 1
CNc1cc(C)nc(Nc2ccc(OC)c(-c3cc4n(c3)CCN(C)C4)c2)n1	> 10	> 10	> 10
CNc1cc(C)nc(Nc2ccc(OC)c(-c3cc4n(c3)CCNC4)c2)n1	1 to 10	1 to 10	1 to 10

Reference: US20220235065A1 (Epizyme, Inc., priority 2016, published 2022)
